Literature values, collected in patent US7268148B2, “Compositions and methods for use against acne-induced inflammation and dermal matrix-degrading enzymes” (Regents of the University of Michigan, priority 1999, dated 2007).

Test system: NF-κB
Details: cited from earlier work

Compound: CCCCC/C=C\C/C=C\C/C=C\C/C=C\CCCCOP(=O)(F)OC (stereo not shown)
- effect on TNF-induced NF-κB activation: inhibited
